Here are results for one sequence from patent US10562947B2, “Compositions and methods for preventing or treating diseases, conditions or processes characterized by aberrant fibroblast proliferation and extracellular matrix deposition” (MOERAE MATRIX, INC., priority 2011, dated 2020).

Protein sequences, listed by entry. Tags and fused reporters are not part of them. Lines headed by an entry give the natural chain unless they say otherwise; changes in a name come on top.
UniProt Q9Y5S2: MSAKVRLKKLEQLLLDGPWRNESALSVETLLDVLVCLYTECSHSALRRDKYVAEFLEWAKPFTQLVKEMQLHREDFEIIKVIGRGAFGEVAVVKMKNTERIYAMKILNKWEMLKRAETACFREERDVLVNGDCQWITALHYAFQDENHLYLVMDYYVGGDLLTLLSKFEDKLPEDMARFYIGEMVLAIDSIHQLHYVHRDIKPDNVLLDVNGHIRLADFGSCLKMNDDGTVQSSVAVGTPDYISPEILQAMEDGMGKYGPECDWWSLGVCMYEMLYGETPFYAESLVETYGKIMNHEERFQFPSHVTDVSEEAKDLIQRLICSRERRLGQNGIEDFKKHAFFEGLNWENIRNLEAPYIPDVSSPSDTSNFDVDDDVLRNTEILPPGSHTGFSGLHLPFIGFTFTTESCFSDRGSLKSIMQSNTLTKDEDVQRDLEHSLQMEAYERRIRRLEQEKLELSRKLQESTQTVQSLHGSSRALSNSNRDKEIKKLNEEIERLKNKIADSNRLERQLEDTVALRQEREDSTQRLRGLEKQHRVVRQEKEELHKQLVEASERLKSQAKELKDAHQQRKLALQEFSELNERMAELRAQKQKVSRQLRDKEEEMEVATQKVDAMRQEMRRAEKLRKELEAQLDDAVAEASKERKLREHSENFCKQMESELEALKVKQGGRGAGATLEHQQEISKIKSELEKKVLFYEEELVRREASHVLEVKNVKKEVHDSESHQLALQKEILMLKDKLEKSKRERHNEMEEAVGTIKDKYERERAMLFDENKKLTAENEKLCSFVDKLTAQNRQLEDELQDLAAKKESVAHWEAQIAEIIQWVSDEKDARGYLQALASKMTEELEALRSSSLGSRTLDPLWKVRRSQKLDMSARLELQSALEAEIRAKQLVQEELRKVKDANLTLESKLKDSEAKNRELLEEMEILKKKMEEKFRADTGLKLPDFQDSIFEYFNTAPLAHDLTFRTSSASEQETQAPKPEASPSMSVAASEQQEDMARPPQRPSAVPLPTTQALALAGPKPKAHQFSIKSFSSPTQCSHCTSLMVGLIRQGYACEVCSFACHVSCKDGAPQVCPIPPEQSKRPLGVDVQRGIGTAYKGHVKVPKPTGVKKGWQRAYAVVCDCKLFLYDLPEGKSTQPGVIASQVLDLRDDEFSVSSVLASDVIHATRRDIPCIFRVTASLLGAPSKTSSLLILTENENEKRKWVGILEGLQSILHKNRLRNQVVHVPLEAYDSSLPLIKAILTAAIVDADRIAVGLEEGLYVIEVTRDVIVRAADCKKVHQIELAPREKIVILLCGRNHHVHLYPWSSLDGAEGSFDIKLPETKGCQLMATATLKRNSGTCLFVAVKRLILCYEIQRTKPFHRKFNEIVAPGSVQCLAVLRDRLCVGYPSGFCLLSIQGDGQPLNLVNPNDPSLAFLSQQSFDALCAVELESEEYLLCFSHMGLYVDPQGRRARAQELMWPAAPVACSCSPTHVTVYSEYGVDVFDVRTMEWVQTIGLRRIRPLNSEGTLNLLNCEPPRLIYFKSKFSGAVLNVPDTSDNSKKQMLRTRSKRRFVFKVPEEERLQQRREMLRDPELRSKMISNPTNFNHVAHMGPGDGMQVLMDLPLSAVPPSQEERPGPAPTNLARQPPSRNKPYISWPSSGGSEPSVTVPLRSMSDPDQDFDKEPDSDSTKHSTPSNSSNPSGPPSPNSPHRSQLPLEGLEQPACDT
UniProt P49840: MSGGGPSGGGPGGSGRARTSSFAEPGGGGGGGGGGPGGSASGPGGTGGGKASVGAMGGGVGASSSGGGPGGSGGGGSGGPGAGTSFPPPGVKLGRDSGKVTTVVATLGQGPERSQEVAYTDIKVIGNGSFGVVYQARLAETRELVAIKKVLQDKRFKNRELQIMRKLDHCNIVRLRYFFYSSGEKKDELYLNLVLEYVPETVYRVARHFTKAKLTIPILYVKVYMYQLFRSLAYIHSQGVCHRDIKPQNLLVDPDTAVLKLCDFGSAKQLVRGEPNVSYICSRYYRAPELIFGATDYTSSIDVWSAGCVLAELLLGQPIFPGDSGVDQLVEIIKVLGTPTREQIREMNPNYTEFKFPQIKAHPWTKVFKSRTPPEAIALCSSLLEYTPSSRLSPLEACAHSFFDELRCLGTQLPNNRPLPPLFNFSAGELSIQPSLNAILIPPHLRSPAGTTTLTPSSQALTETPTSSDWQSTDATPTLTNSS
UniProt Q9H2X6: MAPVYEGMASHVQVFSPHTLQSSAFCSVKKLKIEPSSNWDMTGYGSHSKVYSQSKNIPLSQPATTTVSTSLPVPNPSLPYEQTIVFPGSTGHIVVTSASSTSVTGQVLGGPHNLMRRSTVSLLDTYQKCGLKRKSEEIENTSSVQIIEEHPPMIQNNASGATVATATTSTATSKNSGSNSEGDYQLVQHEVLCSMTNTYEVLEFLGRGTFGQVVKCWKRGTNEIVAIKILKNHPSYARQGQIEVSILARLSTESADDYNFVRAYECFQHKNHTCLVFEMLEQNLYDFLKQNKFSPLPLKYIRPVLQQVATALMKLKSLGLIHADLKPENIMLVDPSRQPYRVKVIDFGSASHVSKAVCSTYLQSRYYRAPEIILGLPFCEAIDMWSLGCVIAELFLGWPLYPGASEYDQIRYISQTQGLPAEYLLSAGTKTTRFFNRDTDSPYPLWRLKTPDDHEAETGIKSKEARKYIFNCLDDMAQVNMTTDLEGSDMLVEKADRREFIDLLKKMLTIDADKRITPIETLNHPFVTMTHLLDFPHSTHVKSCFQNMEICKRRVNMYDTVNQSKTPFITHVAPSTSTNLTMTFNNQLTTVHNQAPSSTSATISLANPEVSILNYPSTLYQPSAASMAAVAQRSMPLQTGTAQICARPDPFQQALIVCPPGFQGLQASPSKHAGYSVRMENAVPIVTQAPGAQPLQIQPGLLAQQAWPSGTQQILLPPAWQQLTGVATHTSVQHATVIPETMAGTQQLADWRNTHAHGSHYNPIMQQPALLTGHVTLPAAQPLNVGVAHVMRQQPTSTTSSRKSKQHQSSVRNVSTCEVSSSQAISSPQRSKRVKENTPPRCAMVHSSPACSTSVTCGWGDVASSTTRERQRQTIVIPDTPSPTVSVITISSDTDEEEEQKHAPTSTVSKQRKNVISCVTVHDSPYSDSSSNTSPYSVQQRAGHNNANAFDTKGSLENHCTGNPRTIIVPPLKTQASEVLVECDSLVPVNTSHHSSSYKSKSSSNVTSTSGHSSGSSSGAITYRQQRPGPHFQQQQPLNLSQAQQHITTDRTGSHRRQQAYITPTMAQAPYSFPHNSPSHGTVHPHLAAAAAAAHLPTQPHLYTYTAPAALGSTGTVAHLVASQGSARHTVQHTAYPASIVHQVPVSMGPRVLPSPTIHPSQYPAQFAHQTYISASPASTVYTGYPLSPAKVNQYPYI

What all share (assay): Kinase Profiling Assay
What all share (assay type): biochemical
Settings in all cases: 100 μM peptide

In one assay the target is MRCKβ(h) (Homo sapiens, UniProt Q9Y5S2). In outline:
(§1)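 Peptides designed to inhibit MK2 were checked against a broad human kinase panel (266 enzymes), with duplicate measurement of every activity.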

For another assay, the target named is Flt3(D835Y)(h) (Homo sapiens, UniProt P36888, D835Y). In outline: as §1
In a further assay the target is T1, JAK3(h) (Homo sapiens, UniProt P52333).
T1 construct: purchased Millipore
T1 sequence (P52333 1-1124): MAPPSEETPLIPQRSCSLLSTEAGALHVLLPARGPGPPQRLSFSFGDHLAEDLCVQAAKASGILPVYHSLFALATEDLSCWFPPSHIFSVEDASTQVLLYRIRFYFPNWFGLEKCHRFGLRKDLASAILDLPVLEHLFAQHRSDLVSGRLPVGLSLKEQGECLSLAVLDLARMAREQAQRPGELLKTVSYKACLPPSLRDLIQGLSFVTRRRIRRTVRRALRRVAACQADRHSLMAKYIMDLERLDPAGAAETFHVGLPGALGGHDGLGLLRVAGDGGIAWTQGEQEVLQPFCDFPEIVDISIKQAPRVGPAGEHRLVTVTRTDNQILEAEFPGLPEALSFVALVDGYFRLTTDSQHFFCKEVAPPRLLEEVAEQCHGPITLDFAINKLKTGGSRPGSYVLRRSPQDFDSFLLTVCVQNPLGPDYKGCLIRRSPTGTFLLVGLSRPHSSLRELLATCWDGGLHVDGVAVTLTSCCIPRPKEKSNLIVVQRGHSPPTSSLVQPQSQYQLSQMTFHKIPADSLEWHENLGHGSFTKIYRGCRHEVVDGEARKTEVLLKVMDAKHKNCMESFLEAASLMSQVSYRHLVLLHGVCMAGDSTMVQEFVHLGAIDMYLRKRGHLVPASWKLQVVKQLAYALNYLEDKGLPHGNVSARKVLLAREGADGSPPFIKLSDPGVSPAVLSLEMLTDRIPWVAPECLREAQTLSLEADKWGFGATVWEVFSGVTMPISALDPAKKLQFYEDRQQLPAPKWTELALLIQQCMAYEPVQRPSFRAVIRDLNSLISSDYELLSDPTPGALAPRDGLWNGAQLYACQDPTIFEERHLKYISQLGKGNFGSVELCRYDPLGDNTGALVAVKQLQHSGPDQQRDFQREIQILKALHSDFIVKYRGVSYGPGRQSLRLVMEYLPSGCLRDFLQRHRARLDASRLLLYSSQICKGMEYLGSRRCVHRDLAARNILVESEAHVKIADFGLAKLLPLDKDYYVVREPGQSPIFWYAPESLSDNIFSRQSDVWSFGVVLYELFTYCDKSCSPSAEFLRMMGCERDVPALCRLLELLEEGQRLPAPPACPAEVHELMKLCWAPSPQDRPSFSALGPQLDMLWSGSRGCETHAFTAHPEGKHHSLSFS
In outline: as §1

For the next assay, the target named is T2, GSK3α(h) (Homo sapiens, UniProt P49840).
T2 construct: purchased Millipore
In outline:
as §1

The next assay deals with JNK2α2(h) (Homo sapiens, UniProt P45984). In outline:
as §1

In the next assay the target is T3, MKK7β(h) (Homo sapiens, UniProt O14733).
T3 sequence (O14733 1-419): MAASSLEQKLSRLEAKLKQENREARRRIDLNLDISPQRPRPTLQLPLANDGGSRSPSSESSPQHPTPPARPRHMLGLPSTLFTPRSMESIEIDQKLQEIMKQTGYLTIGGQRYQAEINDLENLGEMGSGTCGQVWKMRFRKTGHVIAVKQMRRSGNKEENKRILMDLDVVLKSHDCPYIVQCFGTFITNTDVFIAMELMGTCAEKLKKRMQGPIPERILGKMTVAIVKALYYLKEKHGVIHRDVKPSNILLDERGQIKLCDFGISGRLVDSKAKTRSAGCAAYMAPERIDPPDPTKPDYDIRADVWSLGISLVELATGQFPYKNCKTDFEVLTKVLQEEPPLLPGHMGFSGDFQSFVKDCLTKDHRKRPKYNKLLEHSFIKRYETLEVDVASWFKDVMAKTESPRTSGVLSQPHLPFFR
The gist of the method: as §1

A further assay addresses T4, HIPK2(h) (Homo sapiens, UniProt Q9H2X6).
T4 construct: purchased Millipore
The gist of the method:
as §1

The next assay concerns the target Abl(M351T)(h) (Homo sapiens, UniProt P00519, M351T). The gist of the method:
as §1

The next assay deals with T5, PRAK(h) (Homo sapiens, UniProt Q8IW41).
T5 construct: purchased Millipore (IC50 Profiler Express service)
T5 sequence (Q8IW41 1-473): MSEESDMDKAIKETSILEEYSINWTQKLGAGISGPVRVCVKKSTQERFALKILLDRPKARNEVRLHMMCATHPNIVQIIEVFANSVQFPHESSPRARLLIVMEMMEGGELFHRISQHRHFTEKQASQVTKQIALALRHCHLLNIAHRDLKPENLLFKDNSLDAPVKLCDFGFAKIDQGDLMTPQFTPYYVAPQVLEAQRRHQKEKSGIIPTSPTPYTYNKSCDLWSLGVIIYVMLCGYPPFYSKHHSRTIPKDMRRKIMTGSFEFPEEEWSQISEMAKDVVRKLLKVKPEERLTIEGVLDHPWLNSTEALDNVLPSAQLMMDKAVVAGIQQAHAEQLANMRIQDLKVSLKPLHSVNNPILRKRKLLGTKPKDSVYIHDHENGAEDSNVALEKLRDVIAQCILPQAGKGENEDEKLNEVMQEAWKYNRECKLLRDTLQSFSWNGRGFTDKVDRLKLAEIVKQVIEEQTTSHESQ
In outline: as §1

As for “YARAAARQARAKALNRQLGVA (Mammalian) [MMI-0200]”, the “MRCKβ(h) % activity” value with MRCKβ(h) was 102%. Also, the “Flt3(D835Y)(h) % activity” value with Flt3(D835Y)(h) is reported as 115%. Besides, in the assay with JAK3(h), the “JAK3(h) % activity” value amounted to 117%. In addition, the “GSK3α(h) % activity” value with GSK3α(h) was 119%. Also, the “JNK2α2(h) % activity” value with JNK2α2(h) is reported as 109%. The “MKK7β(h) % activity” value with MKK7β(h) is on record as 117%. Besides, the “HIPK2(h) % activity” value with HIPK2(h) was 102%. Moreover, the “Abl(M351T)(h) % activity” value in the assay with Abl(M351T)(h) stood at 119%. Further, the “PRAK(h) % activity” value in the assay with PRAK(h) is on record as 115%.
